High-throughput results (PubChem BioAssay)
Rango dissoc inh: inhibitors of RanGTP-induced Rango-importin beta complex dissociation; Biochemical FRET Rango-importin beta, RanGTP-induced dissociation; AID 540253; Potency, µM (titrated, usually from 46.1 µM), inactives show at the highest dose activity change, negative = inhibition; actives 0.071% (n = 340,000); note: % of control where 0% means no effect; nearly all actives have a fitted effect of over 45% in size
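FRET read at 45 min, room temperature: inhibitors block the CFP/YFP signal rise when RanGTP (0.6 uM Ran, 2 mM GTP, 0.2 uM RCC1) frees Rango (0.1 uM) from importin beta (0.25 uM). Pre-read after 5 min compound exposure flags interference.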
S-ASM inh: blocks human secretory acid sphingomyelinase. P17405. placental ASM, HMU-PC fluorogenic substrate, 60 min. Potency, µM (doses to about 57.5 µM), for inactives: top-dose activity change, negative = inhibition, hits mostly inhibitors. actives 0.006% (n = 340,000); active = well fitted inhibition curve with a large enough effect; inconclusive = small, poorly fitted or top-dose-only effect; inactive = no such curve, though single readings can be large or run the other way
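Fluorogenic HMU-PC substrate (9 uM final) is turned over by placental ASM in 60 min at 37 C after a 10 min compound preincubation. Reaction ended by alkaline stop (pH 10), with fluorescence read at 386/447 nm.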
Rango-impB inh: Rango-importin beta binding inhibition | Q14974 | Rango CFP/YFP FRET sensor + importin beta, 45 min | Potency, µM (doses to about 92.2 µM), without a hit: top-dose inhibition of complex formation | actives 0.031% (n = 340,000);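 note: 0% = DMSO wells and 100% = buffer wells lacking importin beta; nearly all actives have a fitted effect of over 15% in size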
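Inhibition scored from the CFP 486 nm/YFP 530 nm FRET ratio 45 min after adding 0.125 microM importin beta to 50 nM Rango biosensor preincubated 5 min with compound (room temperature, PBS with DTT, Tween-20, BSA). No-importin wells as positive control.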
gsp ag: agonists of gsp mutant (McCune-Albright syndrome) | gsp mutant cells, cAMP HTRF, 30 min | Potency, µM (titrated, usually from 76.9 µM), inactives show top-dose activation (cAMP increase), actives largely listed as activators | actives 0.13% (n = 340,000) | AID 624287; active = well fitted activation curve with a large enough effect; inconclusive = small, poorly fitted or top-dose-only effect, or another doubt; inactive = no such curve, though single readings can be large or run the other way; cell line not stated here;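 note: phosphodiesterase inhibitor Ro 20-1724 added with compounds to block cAMP breakdown; nearly all actives have a fitted effect of over 60% in size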
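Cells stably selected in G418 were plated at 2000/well, grown 16-24 hr, then given compounds in DMSO with the PDE inhibitor […] (300 uM solution added) for 30 min at 37C; cAMP was read by HTRF.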
gsp antagonist: antagonists of gsp mutant (McCune-Albright syndrome). gsp-mutant cells, cAMP HTRF, 30 min. actives 0.4% (n = 340,000). AID 624288. Potency, µM (titrated, usually from 76.9 µM), for inactives: at the top dose activity change, negative = inhibition, most hits filed as inhibitors; calls by dose curve; cell line not stated here;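 note: intracellular cAMP measured with PDE inhibitor Ro 20-1724 present during compound exposure; % is set by controls: 0 for no effect and ±100 for the full control effect; nearly all actives have a fitted effect of over 65% in size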
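G418-selected cells were plated in DMEM/10% FBS for 16-24 h at 37C, then treated with compounds plus the PDE inhibitor […] (300 uM solution added) for 30 min at 37C. Intracellular cAMP was measured by HTRF after 30 min lysis at room temperature.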
* marks the source's active call; other numbers are inactive results; i = inactive; ? = inconclusive; . = not tested or not shown; [ ] = another dose, or the depositor's remark. In the library only some 0.67% were active in any assay of this set; here they are far more common. Unless noted, calls come from the whole dose curve. Potency is the fitted concentration of half-maximal effect.

Letter code: A = Rango dissoc inh; B = S-ASM inh; C = Rango-impB inh; D = gsp ag; E = gsp antagonist
1) Cc1ccc(N(C(=O)c2snc(C(N)=O)c2N)C(C(=O)NCc2ccccc2)c2ccncc2)c(C)c1 (stereo not drawn)
  A: -7%	B: i	C: -2%	D: 16%	E: -15%
2) Nc1ccccc1-c1n[nH]c(=S)s1
  A: 15µM*	B: 195%	C: ?	D: ?	E: -17%
3) Cc1nnc2sc(SCC(=O)N3CCC(C)CC3)nn2c1=O
  A: -18%	B: 2%	C: 0%	D: ?	E: 3%
4) Cc1nnc2sc(SCC(=O)N3CCCCC3)nn2c1=O
  A: 2%	B: 2%	C: 1%	D: 28µM*	E: 9%
5) OCCn1c(-c2ccc3c(c2)OCO3)csc1=Nc1ccccc1
  A: 15%	B: 4%	C: -1%	D: -23%	E: 28µM*
6) COc1ccc(S(=O)(=O)N2CCN(C(=O)N3CCOCC3)C2C)cc1 (stereo not drawn)
  A: -5%	B: 9%	C: 1%	D: -7%[15.4 µM]	E: 7%
7) FC(F)(F)c1nc(=S)c2ccccc2[nH]1
  A: -14%	B: -8%	C: 1%	D: 2.2µM*	E: 25%
8) Cc1csc(NC(=O)CCCC(=O)c2ccccc2)n1
  A: 0%	B: 0%	C: -1%	D: -8%[15.4 µM]	E: -13%
9) COc1ccc(-c2cc(=O)[nH]c(=S)[nH]2)cc1
  A: 0%	B: 4%	C: 2%	D: 10µM*	E: 0%
10) O=C(CCCOc1ccccc1)NC(=S)Nc1ccccc1
  A: -2%	B: -1%	C: 1%	D: -2%[15.4 µM]	E: -15%
11) COC(=O)[C@@H](c1ccccc1)N(C)S(=O)(=O)c1cccc(S(=O)(=O)N(C)[C@@H](C(=O)OC)c2ccccc2)c1
  A: 12%	B: 3%	C: 1%	D: 4%	E: -1%
12) CCN(Cc1ccc2c(c1)OCCO2)C(=O)CSc1nc(C)nc2sc(C)c(C)c12
  A: -14%	B: -8%	C: 1%	D: -75%	E: 50µM*
13) O=C1C2CC3N1CCC31c3ccccc3-n3c1c2ccc3=O (stereo not drawn)
  A: 0%	B: 20%	C: 1%	D: 0%	E: 8%
14) C#CC[N+](C)(C)C(C#Cc1ccccc1)CC=C (stereo not drawn)
  A: 1%	B: 5%	C: 0%	D: -8%	E: 9%
15) COc1ccc(S(=O)(=O)NCCSCc2ccco2)cc1
  A: -3%	B: 3%	C: 1%	D: 7%	E: -7%
16) COc1ccc(S(=O)(=O)NCCSCc2cccs2)cc1
  A: 8%	B: 0%	C: 0%	D: -4%	E: 32µM*
17) CC(=O)NC12CC3CC(C1)CC(C(=O)NCc1ccc(C)cc1)(C3)C2
  A: 1%	B: 6%	C: ?	D: -4%	E: 7%
18) Cc1cccc(C)c1NCc1n[nH]c(=S)n1-c1ccccc1
  A: 2%	B: 0%	C: 0%	D: -8%[15.4 µM]	E: 9%
19) c1ccc(CN2CCN(c3ncnc4c3[nH]c3ccccc34)CC2)cc1
  A: 0%	B: 3%	C: -2%	D: -31%	E: 32µM*
20) c1ccc2c(c1)[nH]c1c(N3CCC4(CC3)OCCO4)ncnc12
  A: -1%	B: 5%	C: -2%	D: -26%	E: 32µM*
21) c1ccc2c(c1)CCN(c1ncnc3c1[nH]c1ccccc13)C2
  A: 7%	B: -3%	C: 3%	D: 6%	E: ?
22) Cc1ccc2c(c1)[nH]c1c(N3CCN(Cc4ccccc4)CC3)ncnc12
  A: 3%	B: -3%	C: -2%	D: 0%	E: ?
23) Cc1ccc2[nH]c3c(N4CCN(Cc5ccccc5)CC4)ncnc3c2c1
  A: -5%	B: 3%	C: -3%	D: -14%	E: 16µM*
24) CC1(C)c2[nH]c3ccccc3c2C[C@H]2C(=O)N(Cc3ccccc3)C(=O)N21
  A: -22%	B: 0%	C: 2%	D: .	E: .
25) CC1(C)c2[nH]c3ccccc3c2C[C@@H]2C(=O)N(Cc3ccccc3)C(=O)N21
  A: 21µM*	B: -2%	C: ?	D: .	E: .
26) CCOC(=O)N1CCN(C(=O)COC(=O)C2CCN(S(=O)(=O)c3ccc(C)c(C)c3)CC2)CC1
  A: -5%	B: 0%	C: -3%	D: -5%	E: -13%
27) COc1nc(-c2ccccc2)c2cc(Br)ccc2n1
  A: 3%	B: 5%	C: 6%	D: 13µM*	E: 3%
28) O=C(CCn1nnc2ccccc21)Nc1nnc(COc2ccccc2F)s1
  A: -7%	B: 0%	C: 1%	D: -2%	E: 1%
29) O=C(CCn1nnc2ccccc21)Nc1nnc(Cc2ccccc2)s1
  A: -6%	B: -1%	C: -3%	D: ?	E: 32µM*
30) COc1ccc(CCNC(=O)CNS(=O)(=O)c2ccc(F)c(Cl)c2)cc1OC
  A: 9%	B: 0%	C: 0%	D: 16%	E: 7%
31) Cc1nc2cc(NC(=O)c3ccc(S(=O)(=O)N(C)c4ccccc4)cc3)ccc2o1
  A: -11%	B: 6%	C: 4%	D: 2%[15.4 µM]	E: 32µM*
32) CN(c1cccc(NC(=O)c2ccc(N(C)S(=O)(=O)c3ccccc3)cc2)c1)S(C)(=O)=O
  A: 11%	B: 0%	C: 1%	D: -28%	E: 25µM*
33) NS(=O)(=O)c1cccc(NC(=O)c2cc(=O)c3ccccc3o2)c1
  A: -12%	B: 2%	C: -2%	D: ?	E: 1%
34) CN(c1ccccc1)S(=O)(=O)c1cccc(NC(=O)c2cc(=O)c3ccccc3o2)c1
  A: -8%	B: -14%	C: -9%	D: 16%	E: 40µM*
35) Cc1nc2c(c3c1[nH]c1ccccc13)C(O)CC(C)(C)C2 (stereo not drawn)
  A: -1%	B: 64%	C: 4%	D: -4%	E: 22%
36) COc1cc(/C=C/C(=O)OCC(=O)NCCN2C(=O)CSC2=O)ccc1OCC#N
  A: 0%	B: 4%	C: -1%	D: 4%	E: 1%
37) O=C1CCCN1c1ccc(S(=O)(=O)NCCOc2ccccc2)cc1
  A: 18%	B: 4%	C: -2%	D: -13%	E: ?
38) Cc1cc(N2CCCC2=O)cc(C)c1S(=O)(=O)NCCOc1ccc(C(C)(C)C)cc1
  A: -5%	B: -15%	C: 1%	D: -14%	E: 25µM*
39) O=[N+]([O-])c1ccc(/C=N/N=C/c2ccc([N+](=O)[O-])o2)o1
  A: -12%	B: -2%	C: -4%	D: 8%[15.4 µM]	E: ?
40) Cc1cc2ncn(/N=C/c3ccc([N+](=O)[O-])o3)c2cc1C
  A: 0%	B: -5%	C: 58µM*	D: 16%	E: 3%
41) Cc1c(Cc2ccccc2)c(=O)oc2c(C)c(OCC(=O)N[C@@H](Cc3ccccc3)C(=O)O)ccc12
  A: 3%	B: 2%	C: -4%	D: .	E: -4%
42) CN(C)c1ccc(/C=N/NC(=O)COc2ccccc2)cc1
  A: -12%	B: 136%	C: -2%	D: 1%	E: -14%
43) CCCCCC1CC1C(=O)N/N=C/c1ccc(N(C)C)cc1 (stereo not drawn)
  A: 8.2µM*	B: 23%	C: ?	D: -28%	E: 13%
44) CC1=Nc2ccc(C)cc2/C1=C/c1c(N)n2c(S(=O)(=O)C(C)C)nsc2nc1=O
  A: ?	B: 12%	C: ?	D: -19%	E: 40µM*
45) CSCCC(NC(=O)c1ccc(Cl)c([N+](=O)[O-])c1)C(=O)N1CCN(C/C=C/c2ccccc2)CC1 (stereo not drawn)
  A: -16%	B: -1%	C: 3%	D: 7%	E: -12%
46) COc1cccc2sc3cc(NCc4ccc5c(c4)OCO5)ccc3c(=O)c12
  A: 21µM*	B: i	C: ?	D: .	E: 11%
47) Cn1c(=O)c([N+](=O)[O-])c(Cl)c2ccccc21
  A: 31%	B: 4%	C: 0%	D: -2%[15.4 µM]	E: 28µM*
48) O=C1/C(=N\S(=O)(=O)c2cccs2)C([n+]2cccc(Cc3ccccc3)c2)=C([O-])c2ccccc21
  A: 19%	B: -11%	C: 58µM*	D: -10%[15.4 µM]	E: -5%

Record cards, from the list above.
Record of `CSCCC(NC(=O)c1ccc(Cl)c([N+](=O)[O-])c1)C(=O)N1CCN(C/C=C/c2ccccc2)CC1` (stereo not drawn) : Rango dissoc inh = -16%; S-ASM inh = -1%; Rango-impB inh = 3%; gsp ag = 7%; gsp antagonist = -12%
Record of `O=[N+]([O-])c1ccc(/C=N/N=C/c2ccc([N+](=O)[O-])o2)o1` : Rango dissoc inh = -12%; S-ASM inh = -2%; Rango-impB inh = -4%; gsp ag = 8%[15.4 µM]; gsp antagonist = ?
